Among the data in patent US8163732B2, “Tricyclic heteroaryl compounds useful as inhibitors of Janus kinase” (Vertex Pharmaceuticals Incorporated, priority 2005, dated 2012) are Ki values, retold here.

Protein sequences, listed by entry. Tags and fused reporters are not part of them. Lines headed by an entry give the natural chain unless they say otherwise; changes in a name come on top.
UniProt O60674: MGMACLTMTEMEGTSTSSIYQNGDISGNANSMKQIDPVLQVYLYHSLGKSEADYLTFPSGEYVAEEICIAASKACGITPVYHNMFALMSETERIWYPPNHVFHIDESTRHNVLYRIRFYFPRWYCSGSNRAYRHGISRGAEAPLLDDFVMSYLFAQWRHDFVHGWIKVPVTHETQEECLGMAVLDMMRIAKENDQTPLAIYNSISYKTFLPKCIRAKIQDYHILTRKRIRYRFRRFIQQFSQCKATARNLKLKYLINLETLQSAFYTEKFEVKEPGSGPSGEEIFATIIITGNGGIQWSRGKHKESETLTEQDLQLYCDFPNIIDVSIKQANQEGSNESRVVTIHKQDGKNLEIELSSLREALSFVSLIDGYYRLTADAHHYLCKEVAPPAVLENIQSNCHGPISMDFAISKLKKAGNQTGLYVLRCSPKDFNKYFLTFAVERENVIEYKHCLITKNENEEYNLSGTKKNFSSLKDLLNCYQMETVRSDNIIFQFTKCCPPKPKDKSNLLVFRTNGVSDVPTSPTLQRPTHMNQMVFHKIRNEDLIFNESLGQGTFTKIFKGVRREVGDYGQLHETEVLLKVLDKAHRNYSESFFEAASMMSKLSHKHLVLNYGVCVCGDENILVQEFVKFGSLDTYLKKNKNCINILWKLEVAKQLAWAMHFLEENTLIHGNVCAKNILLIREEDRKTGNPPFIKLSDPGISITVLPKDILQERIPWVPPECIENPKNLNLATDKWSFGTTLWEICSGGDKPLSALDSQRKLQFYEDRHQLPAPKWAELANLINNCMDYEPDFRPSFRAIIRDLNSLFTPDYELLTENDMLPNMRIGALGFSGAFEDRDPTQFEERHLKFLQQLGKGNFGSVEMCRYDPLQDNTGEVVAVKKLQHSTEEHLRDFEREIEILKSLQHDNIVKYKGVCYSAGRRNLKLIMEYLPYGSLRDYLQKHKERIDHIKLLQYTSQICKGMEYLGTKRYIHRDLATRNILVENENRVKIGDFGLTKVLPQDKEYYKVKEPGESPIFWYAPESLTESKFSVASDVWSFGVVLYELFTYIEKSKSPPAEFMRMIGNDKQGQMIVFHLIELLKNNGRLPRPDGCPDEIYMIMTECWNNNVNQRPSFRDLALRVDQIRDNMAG

This experiment deals with JAK-2 (Homo sapiens, UniProt O60674). Put plainly: JAK-2 inhibition assay. It is filed as biochemical.

`O=C1Nc2ccccc2-c2ccnc3[nH]cc(c23)C1c1ccc(O)cc1` (stereo not shown) [Compound 125] registered a Ki of under 250 nM.
